Test results reported in patent US10633351B2, “Halogenated compound and axially chiral isomer thereof” (MEDSHINE DISCOVERY INC., priority 2016, dated 2020).

Chains of the proteins cited; added tags and fusions are not shown. Lines headed by an entry give the natural chain unless they say otherwise; changes in a name come on top.
UniProt Q96S37: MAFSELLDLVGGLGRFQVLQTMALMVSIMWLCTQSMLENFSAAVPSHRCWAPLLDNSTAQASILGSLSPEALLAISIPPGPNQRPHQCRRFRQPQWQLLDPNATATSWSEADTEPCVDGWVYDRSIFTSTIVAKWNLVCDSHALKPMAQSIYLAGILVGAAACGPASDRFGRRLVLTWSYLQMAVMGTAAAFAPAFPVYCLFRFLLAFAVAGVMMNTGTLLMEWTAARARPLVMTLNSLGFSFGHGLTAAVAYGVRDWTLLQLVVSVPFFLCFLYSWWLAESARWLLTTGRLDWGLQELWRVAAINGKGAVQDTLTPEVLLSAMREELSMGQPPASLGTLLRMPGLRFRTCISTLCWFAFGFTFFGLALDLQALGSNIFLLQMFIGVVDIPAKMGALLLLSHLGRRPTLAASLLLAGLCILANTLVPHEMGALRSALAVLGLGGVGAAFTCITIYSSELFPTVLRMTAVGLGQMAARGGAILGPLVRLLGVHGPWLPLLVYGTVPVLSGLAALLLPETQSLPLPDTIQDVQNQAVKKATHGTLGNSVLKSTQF

Molecular target: T1, URAT-1 (Homo sapiens, UniProt Q96S37)
T1 construct: expressed in transfected cells; host or cells: MDCK
Assay: Inhibition of 14C-labelled uric acid transport in MDCK cell line stably transfected with the URAT-1 gene
Assay type: cell-based
Conditions: MDCK cells stably transfected with URAT-1, 14C uric acid 50 uM; read-out: IC50 against URAT-1
From the text: Based on the study of the Lesinurad metabolic pathway and its clinical toxic side effects, a series of compounds containing a naphthalene ring substituent (formula I) were designed and synthesized in the present invention, in which two representative compounds (formulas II and V) were successfully separated to give the rotational isomers (formula III and formula IV, formula VI and formula VII). The inventors examined the ability of these compounds to inhibit the transport of labeled uric acid by MDCK cell lines stably transfected with the human URAT1 gene.
Determination of the IC50 value of the inhibitory activity of the compound against uric acid reabsorption by the MDCK cell line stably transfected with the URAT-1 (uric acid transporter) gene.
URAT-1 (MDCK) cell line: the MDCK cell line stably transfected with the URAT-1 gene
Cell culture medium: MEM culture medium added 10% fetal bovine serum (FBS), 1% sodium pyruvate and 250 ug/ml G418. […]
^14C-labelled uric acid was diluted and added into plate, and the final concentration was 50 uM. […] The signal was read by liquid scintillation counter Tri-Carb.
URAT-1 inhibition by the treatment of the compounds was analyzed by calculating the percentage of inhibition according to luminescent data. […]

O=C(O)CSc1nnc(Br)n1-c1ccc(C2CC2)c2ccccc12 (racemic) [(±)-Lesinurad, Lesinurad, reference compound]
IC50: 24 µM
